Data reported in ChEMBL document CHEMBL1138982 (Bioorg Med Chem Lett, 2006).

By UniProt entry, the sequences of proteins in these tests, tags left out.
UniProt P25103, whole entry: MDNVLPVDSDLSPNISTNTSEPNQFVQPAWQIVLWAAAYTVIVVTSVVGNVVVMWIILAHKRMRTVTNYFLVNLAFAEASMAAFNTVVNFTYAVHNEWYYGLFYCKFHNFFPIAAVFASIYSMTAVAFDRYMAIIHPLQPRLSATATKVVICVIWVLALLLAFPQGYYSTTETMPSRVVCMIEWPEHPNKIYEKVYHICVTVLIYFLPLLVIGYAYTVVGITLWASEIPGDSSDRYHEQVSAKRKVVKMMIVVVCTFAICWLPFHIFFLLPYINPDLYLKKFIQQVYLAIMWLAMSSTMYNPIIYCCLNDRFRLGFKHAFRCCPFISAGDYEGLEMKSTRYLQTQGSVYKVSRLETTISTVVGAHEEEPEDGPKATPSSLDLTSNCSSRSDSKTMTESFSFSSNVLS

Target: Substance-P receptor (Homo sapiens, UniProt P25103)
Assay: Displacement of [3H]-labeled substance P from cloned human NK1 receptor expressed in CHO cells
Format: cell-based

Row | Ki [nM] | Compound
1 | 3.5 | Cc1ccccc1-c1cnc(N2CCN(C)CC2)nc1C(=O)N(C)Cc1cc(C(F)(F)F)cc(C(F)(F)F)c1
2 | 1380 | CC(C)(C(=O)Nc1ccccc1-c1ccccc1)c1cc(C(F)(F)F)cc(C(F)(F)F)c1
